# Patent US20140274969A1 (priority 2013, published 2014)
# Conditions: high-dose group; normalized after discontinuation
# Method: Subjects were evaluated for adverse events daily while in hospital and at each subsequent clinical evaluation. All serious adverse events (Table 4) were reviewed promptly by a safety monitoring board composed of clinicians and clinician researchers not otherwise involved in this study. A summary of all adverse events was reviewed every 6 months.
# The model assumed that any change associated with treatment group was constant over these time points. An interaction term between treatment and injury type was included to allow for the possibility that changes associated with treatment group differed among motor-complete and motor-incomplete injured subjects. ASIA sensory scores were similarly evaluated. ASIA motor, pin-prick and light scores were evaluated by the Shapiro-Wilk normality test and were consistent with a normal distribution. Functional recovery data were compared over all data points. Adverse events were categorized by system and mean numbers of events per patient were compared within each system by ANOVA. All statistical tests were two-tailed (a=0.05). […] The Student t-test was then used to estimate the between group difference that this study was powered to detect with power=0.8 and a=0.05.
structure (smiles),measurement,value
"CN(C)c1ccc(O)c2c1C[C@H]1C[C@H]3[C@H](N(C)C)C(O)=C(C(N)=O)C(=O)[C@@]3(O)C(O)=C1C2=O [minocycline, (2E,4S,4aR,5aS,12aR)-2-(amino-hydroxy-methylidene)-4,7-bis(dimethylamino)-10,11,12a-trihydroxy-4-a,5,5a,6-tetrahydro-4H-tetracene-1,3,12-trione]",subjects with elevated liver enzymes (only adverse event likely related to minocycline),one
